Tested on: CYP26A1
Assay: stromal CYP26A1 expression in BM stromal cells (qRT-PCR)
Format: cell-based
Settings: soluble factors tested
Description: For Transwell experiments, 6-well plates were coated with 0.1% gelatin in PBS for 30 min at 37° C. The gelatin solution was removed, and the stromal cells were cultured overnight in FBMD1 media at a density of 10×10^4 cells/well in 2 ml of media to obtain a confluent monolayer. At that time, Transwell inserts (Corning) were placed over the stroma cultures, and MM cell lines (1×10^6 in 1 ml) were seeded in the Transwell for 24 hr at 37° C. Following this incubation, Transwell and MM cells were removed, and stromal cells were detached from the wells and analyzed by qRT-PCR for CYP26 expression.
Total RNA was extracted using the RNeasy Mini Kit (QIAGEN) according to the manufacturer's instructions. cDNA was synthesized by reverse transcription using the iScript cDNA Synthesis Kit (Bio-Rad). qRT-PCR was performed with iTaq SYBR Green Supermix (Bio-Rad) using sequence specific primers. Gene expression was normalized to GAPDH, and relative quantification was calculated using ΔΔCt. All experiments were performed in duplicate and run on the Bio-Rad CFX96 machine.
Thus, it was determined whether MM cells reinforce a protective microenvironment by strengthening the ability of BM stroma to inactivate retinoids. Stromal CYP26 expression was analyzed by qRT-PCR in BM mesenchymal cells following a 24-hr coculture with MM cells. […]

B1: IL-3: cytokine, soluble factor tested (protein, UniProt P08700 20-152, looked up)
Interleukin-3: APMTQTTPLKTSWVNCSNMIDEIITHLKQPPLPLLDFNNLNGEDQDILMENNLRRPNLEAFNRAVKSLQNASAIESILKNLLPCLPLATAAPTRHPIHIKDGDWNEFRRKLTFYLKTLENAQAQQTTLSLAIF
  CYP26A1 expression on BM stromal cells: no significant effects
